# Target: A1R (A1R-FlpInCHO cells) (Homo sapiens, UniProt P30542)
# Amino acid sequences for entries named in this document (tags omitted). A change or cut given only in a name is not applied to a line headed by its entry.
# UniProt P30542, whole entry: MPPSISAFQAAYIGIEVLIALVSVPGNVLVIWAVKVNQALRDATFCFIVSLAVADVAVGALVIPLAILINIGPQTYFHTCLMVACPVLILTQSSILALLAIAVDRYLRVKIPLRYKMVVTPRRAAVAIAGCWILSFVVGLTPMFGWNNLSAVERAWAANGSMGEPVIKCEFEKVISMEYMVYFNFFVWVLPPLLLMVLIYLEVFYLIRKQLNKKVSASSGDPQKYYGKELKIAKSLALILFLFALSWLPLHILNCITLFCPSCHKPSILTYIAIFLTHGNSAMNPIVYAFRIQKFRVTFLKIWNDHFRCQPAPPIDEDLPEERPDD
# Assay: Inhibition of forskolin-stimulated cAMP accumulation: NECA potency ± compound and compound alone
# Format: cell-based
# Details: 30 μM compound in the absence of NECA; for NECA: maximal response
# Procedure: FlpInCHO cell lines and cortical neuron cells were seeded into transparent 96-well plates at 20,000 cells/well and incubated for 16 to 20 h in a humidified incubator at 37 °C in 5% CO2. […] Compounds were added at either a single concentration (10 or 30 μM) or a concentration range for full interaction studies (3 to 30 μM), and plates were incubated for 30 to 60 min at 37 °C in a humidified chamber. […] After 30 min incubation at 37 °C, the reaction was terminated by rapid removal of buffer and the addition of 50 μL/well cold ethanol. […] Agonist concentration–response curves were normalized to the response mediated by 3 µM forskolin […].
# Response=Basal+Emax-Basal×A/EC50+A,
structure (smiles),measurement,value
"CCNC(=O)[C@H]1O[C@@H](n2cnc3c(N)ncnc32)[C@H](O)[C@@H]1O [NECA, 5′-N-ethylcarboxamidoadenosine, reference compound]",inhibition of 3 μM forskolin-stimulated cAMP accumulation,103%

# From paper PMC12280925, “Structure-based discovery of positive allosteric modulators of the A1 adenosine receptor” (Proceedings of the National Academy of Sciences of the …, 2025)
